Laboratory results published in ChEMBL document CHEMBL4049404, “Discovery of (R)-1-(3-(4-Amino-3-(3-chloro-4-(pyridin-2-ylmethoxy)phenyl)-1H-pyrazolo[3,4-d]pyrimidin-1-yl)piperidin-1-yl)prop-2-en-1-one (CHMFL-EGFR-202) as a Novel Irreversible EGFR Mutant Kinase Inhibitor with a Distinct Binding Mode” (J Med Chem, 2017).

What was measured:
[1] = system: Epidermal growth factor receptor (Homo sapiens), P00533 [UNDEFINED MUTATION]; assay: Binding affinity to human EGFR L747-E749del/A750P mutant expressed in bacterial system assessed as control score at 1 uM by KINOMEScan assay
[2] = system: Epidermal growth factor receptor (Homo sapiens), P00533 [L858R,T790M]; assay: Binding affinity to human EGFR L858R/T790M mutant expressed in mammalian system assessed as control score at 1 uM by KINOMEScan assay
[3] = system: Epidermal growth factor receptor (Homo sapiens), P00533 [L858R]; assay: Binding affinity to human EGFR L858R mutant expressed in bacterial system assessed as control score at 1 uM by KINOMEScan assay
[4] = system: Epidermal growth factor receptor (Homo sapiens), P00533 [UNDEFINED MUTATION]; assay: Binding affinity to human EGFR L747-S752del/P753S mutant expressed in bacterial system assessed as control score at 1 uM by KINOMEScan assay
[5] = system: Epidermal growth factor receptor (Homo sapiens), P00533 [G719S]; assay: Binding affinity to human EGFR G719S mutant expressed in bacterial system assessed as control score at 1 uM by KINOMEScan assay
[6] = system: Epidermal growth factor receptor (Homo sapiens), P00533 [L861Q]; assay: Binding affinity to human EGFR L861Q mutant expressed in bacterial system assessed as control score at 1 uM by KINOMEScan assay
[7] = system: Epidermal growth factor receptor (Homo sapiens), P00533 [UNDEFINED MUTATION]; assay: Binding affinity to human EGFR L747-T751del/Sins mutant expressed in bacterial system assessed as control score at 1 uM by KINOMEScan assay relative to control
[8] = system: Epidermal growth factor receptor (Homo sapiens), P00533 [T790M]; assay: Binding affinity to human EGFR T790M mutant expressed in mammalian system assessed as control score at 1 uM by KINOMEScan assay
[9] = system: Epidermal growth factor receptor (Homo sapiens), P00533 [UNDEFINED MUTATION]; assay: Binding affinity to human EGFR E746-A750 deletion mutant expressed in bacterial system assessed as control score at 1 uM by KINOMEScan assay
[10] = system: Epidermal growth factor receptor (Homo sapiens), P00533 [UNDEFINED MUTATION]; assay: Binding affinity to human EGFR S752-I759 deletion mutant expressed in bacterial system assessed as control score at 1 uM by KINOMEScan assay
[11] = system: Epidermal growth factor receptor (Homo sapiens), P00533 [G719C]; assay: Binding affinity to human EGFR G719C mutant expressed in bacterial system assessed as control score at 1 uM by KINOMEScan assay

Compound `C=CC(=O)N1CCC[C@@H](n2nc(-c3ccc(OCc4ccccn4)c(Cl)c3)c3c(N)ncnc32)C1` has an Activity [1] of 5.5%, an Activity [2] of 1.4% and an Activity [3] of 0.7%. For the same compound, the Activity [4] was 8.5%, the Activity [5] was 1.6% and the Activity [6] was 0.15%. It also gave an Activity [7] of 5.5%, an Activity [8] of 0.15% and an Activity [9] of 10%. The Activity [10] was 2.2% and the Activity [11] was 0.35%.
